# Results: ChEMBL document CHEMBL5385852, “Structural optimization and biological evaluation of 1-adamantylcarbonyl-4-phenylpiperazine derivatives as FXR agonists for NAFLD” (Eur J Med Chem, 2023)
# Biological target: T1, G-protein coupled bile acid receptor 1 (Homo sapiens) (UniProt Q8TDU6)
# T1 sequence (whole entry): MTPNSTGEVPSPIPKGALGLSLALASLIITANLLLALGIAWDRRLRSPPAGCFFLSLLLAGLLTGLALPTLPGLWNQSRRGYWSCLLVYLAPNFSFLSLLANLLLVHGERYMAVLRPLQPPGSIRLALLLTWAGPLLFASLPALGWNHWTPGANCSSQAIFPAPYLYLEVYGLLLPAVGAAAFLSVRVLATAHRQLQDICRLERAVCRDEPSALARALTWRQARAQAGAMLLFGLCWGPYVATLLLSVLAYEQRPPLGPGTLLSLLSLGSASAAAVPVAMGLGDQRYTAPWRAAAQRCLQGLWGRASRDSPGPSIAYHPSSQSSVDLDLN
# Assay: Agonist activity at TGR5 (unknown origin) by HTRF cAMP dynamic 2 assay
# Assay type: functional
compound,measurement,value
Nc1ccc(Cl)cc1N1CCN(C(=O)C23CC4CC(CC(C4)C2)C3)CC1,Activity,inactive

# Activity calls are given as the source filed them. The rule behind the calls is not given here.
